Data reported in ChEMBL document CHEMBL4138258 (ACS Med Chem Lett, 2017).

The chains behind the UniProt entries cited, without tags or fusion partners.
UniProt P34972, whole entry: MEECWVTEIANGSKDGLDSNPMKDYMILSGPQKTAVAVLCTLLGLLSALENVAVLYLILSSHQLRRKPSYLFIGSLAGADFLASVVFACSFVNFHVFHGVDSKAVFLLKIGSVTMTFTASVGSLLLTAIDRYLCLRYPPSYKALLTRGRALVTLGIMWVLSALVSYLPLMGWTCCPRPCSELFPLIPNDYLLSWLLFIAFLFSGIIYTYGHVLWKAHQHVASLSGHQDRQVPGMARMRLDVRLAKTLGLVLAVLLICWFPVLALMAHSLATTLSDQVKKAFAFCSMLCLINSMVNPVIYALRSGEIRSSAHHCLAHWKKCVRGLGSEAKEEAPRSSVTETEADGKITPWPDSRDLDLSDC

Molecular target: Cannabinoid receptor 2 (Homo sapiens, UniProt P34972)
Assay: Agonist activity at recombinant human CB2 receptor expressed in HEK293 cells assessed as increase in beta arrestin recruitment measured after 2 to 3 hrs by PathHunter assay relative to CP55940
Format: functional, cell-based

SMILES: O=C(NC1(C(F)(F)F)CC1)c1nn(-c2c[n+]([O-])ccn2)c2c1C[C@@H]1C[C@H]21
- Emax: 108%
